Screening results (PubChem)
miR-122 sensor: inhibitors of miR-122 in Huh7 cells | Huh7 miR-122 Renilla luciferase sensor, 48 h; neutral wells = 0, positive control = 100 | activation (reporter increase), % at 12.5 µM | hit rate 0.3% among 340,000 | AID 602342;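 active = mean replicate activation score at least 90 and every replicate individually at or above 90; inconclusive = only one of the two criteria met; inactive = neither criterion met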;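 also: higher luciferase means less miR-122 activity so hits act as miR-122 inhibitors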
Yeast UUG start: yeast start codon fidelity modulation; activity score, % at 18.7 µM; actives 0.13% (n = 350,000); S. cerevisiae UUG-firefly luciferase reporter, luminescence/redox ratio; AID 602363;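 active means replicate mean at a twofold rise or more, about +100% in these data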;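 further: firefly luciferase made from a UUG start codon reports start codon fidelity; reporter light over untreated wells divided by growth signal over untreated wells; some hits fall short of that in this replicate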
PGC1a acetyl inh: modulators of PGC1a acetylation; U2OS PGC1a acetylation, AlphaScreen anti-acetyl-lysine; with virally co-expressed GCN5 acetyltransferase; inhibition, % at 15.6 µM; hit rate 0.17% among 350,000; AID 651687;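 active = every replicate shows inhibition of at least 40%; inconclusive = mean inhibition at least 40% but some replicate below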;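 also: 0% = neutral control wells and 100% = positive control wells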
Cneo AK release: causes C. neoformans cell lysis. adenylate kinase release luminescence, 4 h; normalised: neutral wells 0, clomiphene wells 100. lysis activity, % at 15 µM. hit rate 0.2% among 360,000. AID 651654;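 active = mean lysis activity across replicates of at least 80%, whatever share of replicates individually reach that level; inactive = mean lysis activity below 80%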
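Material: C. neoformans cells; Schedule: 4 h static compound exposure, 37 °C, read 1 h post-reagent; Measured by: adenylate kinase release luminescence; Read-out: signal increase indicating cell lysis; Controls: Clomiphene as positive lysis control.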
FN deposition inh: fibronectin deposition inhibition. AH1F fibroblasts, Alexa488-fibronectin deposition fluorescence, overnight. inhibition, % at 12.6 µM. hit rate 0.086% among 350,000;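 active = mean inhibition across replicates of 30% or more, regardless of how many single replicates reach that level; inconclusive = mean under 30% yet at least half of replicates reach 30%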;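 also: positive control wells lacked labelled fibronectin entirely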
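Measured by – fluorescence 485/525 nm · System – AH1F fibroblast monolayer, labelled fibronectin deposition · Amount – 10000 cells per well · Buffer or medium – serum-reduced DMEM (2% serum) · Doses – single dose, pinned · Also added – fluorescent fibronectin at 24 nM final · Schedule – 1 h cell attachment, overnight exposure to compound and label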
HIV Env fusion: blocks HIV Env-driven cell-cell fusion; hit rate 1.1% among 360,000; inhibition, % at 12.3 µM; HeLa-JRFL Env/CEM21 cell fusion, luciferase;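 active = mean replicate inhibition score of at least 50 and every replicate individually at or above 50; inconclusive = only one of the two criteria met; inactive = mean below 50 and not all replicates reaching 50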;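 also: 0% = plate neutral controls and 100% = maraviroc near 300 nM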
Starred values were filed as active, the others as inactive; i = inactive; u = inconclusive; x = no result given; [ ] = another dose, or the depositor's remark. An excerpt weighted towards active compounds, which were near 1.5% of everything screened.

| smiles | miR-122 sensor | Yeast UUG start | PGC1a acetyl inh | Cneo AK release | FN deposition inh | HIV Env fusion |
| --- | --- | --- | --- | --- | --- | --- |
| C[C@H]1CN([C@@H](C)CO)C(=O)Cc2cc(N(C)C)ccc2O[C@H]1CN(C)S(=O)(=O)c1cn(C)cn1 | 2[16.7 µM] | 5 | 1 | -3 | -8 | -16[16.7 µM] |
| CCn1c(-c2ccccc2)csc1=Nc1ccc(S(=O)(=O)O)cc1 | x | x | x | x | 1 | 34 |
| COCCCn1c(-c2ccc(S(=O)(=O)N3CCOCC3)cc2)csc1=Nc1ccccc1 | x | x | x | x | -3 | 70* |
| COC(=O)c1ccc(OC)c(CSc2nnc(COc3ccc(Cl)cc3)o2)c1 | -2 | -18 | 1 | -3 | -6 | 60* |
| COCC(C)NC(=O)C(C)N1c2cccc3cccc(c23)S1(=O)=O (stereo not given) | 0 | -1 | 13 | -9 | -2 | 6 |
| COc1ccc(C#Cc2ccc3c(c2)[C@H]2[C@H](CCN2C(C)=O)[C@@H](CO)N3C)cc1 | -1[16.7 µM] | -6 | 11 | -7 | -2 | x |
| O=C(NC(Cc1ccccc1)C(=O)NC1CC1)OCc1ccccc1 (stereo not given) | 1 | -9 | -2 | 1 | 5 | 6 |
| CC(C)C(=O)N1CCN(c2ccc(NC(=O)c3ccc([N+](=O)[O-])o3)cc2Cl)CC1 | x | x | 30 | x | 37* | i |
| NCCc1c(-c2ccccc2)n(-c2ccccc2)c2ccccc12 | -18 | x | -16 | x | 44* | 16 |
| CCN(CC)c1ccc(S(=O)(=O)Nc2cc(Cl)ccc2Cl)cc1NC(=S)NC(=O)C1CCCC1 | 285* | -17 | 2 | -1 | x | 32 |
| N#C/C(=C\c1ccc(O)cc1)C(=O)NCc1ccccc1 | 1 | -10 | 11 | -3 | -3 | -12 |
| CC(=O)Nc1ccc(/C=C(\C#N)C(=O)NCc2ccccc2)cc1 | -2 | -6 | -1 | -3 | 33* | 15 |
| CC(C)C(=O)NC(=S)NCC(=O)c1ccccc1 | -10 | -14 | -11 | 3 | x | x |
| CCN1C(=O)[C@H]2[C@H]3CN=C(SCc4ccc(Cl)cc4)N3[C@@](CC)(C(=O)OC)[C@H]2C1=O | -1 | -18 | -7 | 2 | -3 | 69* |
| COC(=O)[C@@]1(C)[C@H]2C(=O)N(Cc3ccccc3)C(=O)[C@H]2[C@H]2CN=C(SCc3ccc(C)cc3)N21 | -5 | 1 | -9 | 5 | -9 | 65* |
| CCN1C(=O)[C@H]2[C@H]3CN=C(SCc4ccc(OC)cc4)N3[C@@](CC)(C(=O)OC)[C@H]2C1=O | -11 | -11 | 5 | 0 | 3 | -10 |
| COC(=O)[C@@]1(Cc2ccccc2)[C@H]2C(=O)N(Cc3ccccc3)C(=O)[C@H]2[C@H]2CN=C(SCc3ccccc3)N21 | -1 | 8 | 0 | 7 | -3 | 76* |
| CCCNC(=O)C1(C)CCCN(C(=O)c2sccc2C)C1 (stereo not given) | x | -18 | 7 | -2 | x | -8 |
| CC(C)(C)n1nnnc1C(c1ccncc1)N1CCN(C2CCCCC2)CC1 (stereo not given) | x | 2 | -3 | -1 | x | x |
| CC(C)(C)n1nnnc1C(c1cccnc1)N1CCN(C2CCCCC2)CC1 (stereo not given) | -15 | -13 | 5 | 1 | 2 | 65* |

Remaining list, next part.
canonical_smiles,miR-122 sensor,Yeast UUG start,PGC1a acetyl inh,Cneo AK release,FN deposition inh,HIV Env fusion
COc1ccc(-c2ccc(=O)[nH]n2)cc1,-6,x,-1,x,x,x
CC(C)CC1(C)N=C(c2ccccc2)C(=S)N1 (stereo not given),14,-15,-3,82*,-1,3
O=C(C1CCCCC1)N1CCCC(c2nc3c(nnn3Cc3ccccc3)c(=O)[nH]2)C1 (stereo not given),-6,-2,x,-1,x,79*
O=C(c1ccccc1)N1CCCC(c2nc3c(nnn3Cc3ccccc3)c(=O)[nH]2)C1 (stereo not given),-2,-3,0,0,8,24
CN(C)CCn1c(=O)n(-c2ccc(F)cc2)c(=O)c2c3c(sc21)CCCCC3,x,x,x,x,0,u
CN(C)CCn1c(=O)n(-c2cccc(Cl)c2)c(=O)c2c3c(sc21)CCCCC3,x,x,-22,x,-1,130*
CN(C)CCCn1c(=O)n(C2CCCCC2)c(=O)c2c3c(sc21)CCCCC3,0,-14,3,88*,-7,12
COc1ccc(Cl)cc1C(=O)NNC(=O)c1ccncc1,-7,-11,-2,0,-2,-11
O=C(Nc1ccc2c(c1)OCCO2)C1CCN(S(=O)(=O)c2ccccc2)CC1,177*,7,-1,1,1,11
Cc1cccc(NC(=O)C2CCN(S(=O)(=O)c3ccc4c(c3)OCCCO4)CC2)n1,0,x,x,x,0,83*
O=C(Nc1ccc2c(c1)OCCO2)C1CCN(S(=O)(=O)c2ccc3c(c2)OCCO3)CC1,4,-11,-12,1,-6,6
O=S(=O)(c1ccccc1)N1C[C@H]2[C@@H](c3ccccc31)[C@@H](CO)N2Cc1ccc2c(c1)OCO2,140*[16.7 µM],-5,-19,-3,5,x
O=S(=O)(c1ccccc1)N1C[C@H]2[C@@H](c3ccccc31)[C@H](CO)N2Cc1ccc2c(c1)OCO2,10[16.7 µM],5,-17,1,-3,x
O=S(=O)(c1ccc(F)cc1)N1C[C@@H]2[C@H](c3ccccc31)[C@@H](CO)N2Cc1ccccc1Cl,0[16.7 µM],44,-12,92*,11,x
CC(=O)N1[C@@H]2CN(S(=O)(=O)c3ccccc3F)c3ccccc3[C@@H]2[C@@H]1CO,33[16.7 µM],26,16,92*,x,x
Fc1ccc2nc3c(nc2c1)CCCC3,3,-6,36,0,15,-7
COc1ccc(-c2nnc(SCC(=O)O)n2C)cc1OC,x,x,-5,x,4,3
CSCCC(Nc1ncnc2ccc(Br)cc12)C(=O)O (stereo not given),-2,-19,1,0,x,5
COc1cc2ncnc(NCc3ccco3)c2cc1OC,x,x,-5,x,-1,30
CC(C)Nc1ncnc2ccc(Br)cc12,x,x,x,x,13,55*
Brc1ccc2ncnc(NCc3ccco3)c2c1,8,-8,4,0,15,67*
CN(C)CCCNc1nc2cc(-c3ccccc3CO)sc2c(=O)n1C,-8,-5,5,-3,x,22
CCC(C)(C)n1nnnc1C(c1ccc(C)cc1)N(Cc1ccco1)Cc1cccs1 (stereo not given),8,-7,-28,2,-11,135*
COc1ccc(Cl)cc1N(CC(=O)N(C)C)S(=O)(=O)c1ccc(C)c([N+](=O)[O-])c1,101*,15,-15,4,-44,-21
COc1ccc(Cl)cc1N(CC(=O)N/N=C/c1ccc(OC(C)C)cc1)S(=O)(=O)c1ccc(C)c([N+](=O)[O-])c1,x,x,x,x,5,x
COc1cc2oc3ccccc3c2cc1N(CC(=O)N(C)C)S(=O)(=O)c1ccccc1,114*,15,-9,-2,x,x
CC(C)(C)C1CCc2onc(C(=O)NCc3ccc(F)cc3)c2C1 (stereo not given),1,-17,2,3,-4,76*

4 compounds already listed, arranged by heavy-atom count, smallest number first:
canonical_smiles,miR-122 sensor,Yeast UUG start,PGC1a acetyl inh,Cneo AK release,FN deposition inh,HIV Env fusion
Fc1ccc2nc3c(nc2c1)CCCC3,3,-6,36,0,15,-7
O=C(Nc1ccc2c(c1)OCCO2)C1CCN(S(=O)(=O)c2ccccc2)CC1,177*,7,-1,1,1,11
CCC(C)(C)n1nnnc1C(c1ccc(C)cc1)N(Cc1ccco1)Cc1cccs1 (stereo not given),8,-7,-28,2,-11,135*
O=C(Nc1ccc2c(c1)OCCO2)C1CCN(S(=O)(=O)c2ccc3c(c2)OCCO3)CC1,4,-11,-12,1,-6,6
